Measured values: patent US20050209147A1, “Peptide inhibitors of RhoA signaling” (The Board of Trustees of the Leland Stanford Junior …, priority 2004, published 2005)

Sequences of proteins named here, by UniProt entry; tags and fusion partners are left off. A change or cut given only in a name is not applied to a line headed by its entry.
UniProt P61586: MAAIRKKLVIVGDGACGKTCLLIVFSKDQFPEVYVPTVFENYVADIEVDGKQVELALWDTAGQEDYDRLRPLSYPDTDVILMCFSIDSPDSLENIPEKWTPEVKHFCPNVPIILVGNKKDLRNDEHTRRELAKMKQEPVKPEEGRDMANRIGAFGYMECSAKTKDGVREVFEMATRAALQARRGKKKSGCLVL

System: LFA-1 high affinity state
Assay: Measurement of LFA-1 high affinity state (soluble 125I-ICAM-1 binding)
Assay type: cell-based, mouse
Details: for LFA-1 high affinity state triggering by CCL21: 125I-ICAM-1 binding, 1 μM CCL21 2 min
Method: Measurement of LFA-1 high affinity state. Induction of LFA-1 high affinity state by CCL21 was evaluated by measuring binding of soluble ^125I-ICAM-1. Briefly, ICAM-1 was iodinated with ^125NaI by the Chizzonite method. The binding assay was performed at 37° C. in a 500 μl Eppendorf tube. 40 μl of lymphocyte suspension (5×10^7/ml in PBS containing 1 mg/ml BSA, 2 mM MgCl2, 1 mM CaCl2, 1 mM D-glucose, pH 7.2) were directly layered on […] oil cushion of 2/1 dibutyl/dioctyl phthalates. Lymphocytes were stimulated with 10 μl of PBS containing chemokine (6 μM) and ^125I-ICAM-1 (5×10^5 CPM corresponding approximately to 2 μg of ^125I-ICAM-1). The binding reaction was stopped by rapid centrifugation in microfuge. Radioactivity bound to lymphocytes was counted with a gamma counter.

LFA-1 high affinity state triggering by CCL21	maximum blockade of LFA-1 high affinity state triggering (dose-dependent, CCL21)	Substance
prevented	about 90%	P1-RhoA 23-40: Penetratin-1 fused through a glycine to human RhoA aa 23-40 (IVFSKDQFPEVYVPTVFE, Domain I); aa 34 (Penetratin-1 fused via glycine linker; UniProt P61586 23-40, looked up, fragment)
did not prevent	–	P1-RhoA 75-92: Penetratin-1 fused through a glycine to human RhoA aa 75-92 (PDTDVILMCFSIDSPDSL, Domain II); aa 34 (Penetratin-1 fused via glycine linker; UniProt P61586 75-92, looked up, fragment)
